From PubChem BioAssay AID493160 (Sanford-Burnham Center for Chemical Genomics, 2011)
The list shows a part of the results, in another mix than the full data. The source made the active and inactive calls.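 How the source made its calls: active means inhibition above about 35% when tested at 20 µM (limit read from the data); inactive means the rest.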

Protein sequences, listed by entry. Tags and fused reporters are not part of them. Lines headed by an entry give the natural chain unless they say otherwise; changes in a name come on top.
UniProt Q2TB90: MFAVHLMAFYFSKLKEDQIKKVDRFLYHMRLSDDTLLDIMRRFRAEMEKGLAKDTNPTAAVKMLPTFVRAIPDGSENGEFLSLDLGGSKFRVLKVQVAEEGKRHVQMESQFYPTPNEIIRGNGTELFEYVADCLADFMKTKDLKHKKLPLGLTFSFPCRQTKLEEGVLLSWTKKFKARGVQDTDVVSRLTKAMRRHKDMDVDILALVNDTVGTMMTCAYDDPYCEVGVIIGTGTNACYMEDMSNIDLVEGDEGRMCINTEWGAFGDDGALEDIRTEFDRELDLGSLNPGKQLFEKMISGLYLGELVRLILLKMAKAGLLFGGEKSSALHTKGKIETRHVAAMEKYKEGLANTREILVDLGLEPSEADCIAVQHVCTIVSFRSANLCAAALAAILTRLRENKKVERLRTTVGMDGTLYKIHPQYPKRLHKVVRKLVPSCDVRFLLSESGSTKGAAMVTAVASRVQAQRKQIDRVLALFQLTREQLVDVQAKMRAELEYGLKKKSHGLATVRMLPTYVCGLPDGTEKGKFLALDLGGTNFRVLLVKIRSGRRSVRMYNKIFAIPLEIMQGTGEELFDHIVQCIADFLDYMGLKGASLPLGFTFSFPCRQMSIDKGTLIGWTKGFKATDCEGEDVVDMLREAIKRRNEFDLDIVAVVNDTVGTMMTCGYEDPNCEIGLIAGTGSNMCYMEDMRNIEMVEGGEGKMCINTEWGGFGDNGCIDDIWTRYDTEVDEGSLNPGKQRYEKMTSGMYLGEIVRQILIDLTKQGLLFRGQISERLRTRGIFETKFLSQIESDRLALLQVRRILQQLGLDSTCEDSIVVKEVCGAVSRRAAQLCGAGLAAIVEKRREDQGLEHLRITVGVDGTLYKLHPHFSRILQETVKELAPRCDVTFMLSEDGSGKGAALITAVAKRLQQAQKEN

These molecules were tested against Hexokinase HKDC1 (Homo sapiens) (UniProt Q2TB90) (assay: blockers of human HKDC1 enzyme activity – biochemical, fluorescence, uHTS, primary screen (AID 493160;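 further: plate controls were DMSO wells with enzyme for no effect and DMSO wells lacking enzyme for full effect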)). Conditions: recombinant HKDC1, G6PDH/diaphorase resazurin coupled fluorescence; at 20 µM; active compounds read high.

| SMILES | inhibition |
| --- | --- |
| Cc1c2c(nc3ccccc13)SC(C(Cl)Cl)C2 (stereo not given) | inactive: -8.1% |
| O=C(OC1CN2CCC1CC2)C12CC3CC(CC(C3)C1)C2 (stereo not given) | inactive: -6.63% |
| Cc1cc(=O)[nH]c(N[N+](=O)[O-])n1 | inactive: -2.43% |
| O=P1(N(CCCl)CCCl)OCCCN1CCCl (stereo not given) | inactive: -9.98% |
| O=P1(N(CCCl)CCCl)Nc2ccccc2N1 | inactive: -2.44% |
| COc1ccc2nc(NP(=O)(c3ccccc3)c3ccccc3)sc2c1 | inactive: -2.05% |
| COc1cc(I)ccc1[As](=O)(O)O | inactive: -2.16% |
| O=[N+]([O-])c1cc(Oc2ccc([N+](=O)[O-])cc2C(F)(F)F)cc([N+](=O)[O-])c1 | inactive: 10.3% |
| COc1ccc(N/C(=N/P(=O)(N2CCOCC2)N2CCOCC2)N2CCOCC2)cc1 | inactive: -8.85% |
| O=[As](O)(c1ccc(O)cc1)c1ccccc1O | inactive: 18.6% |
| C[As](=O)(O)c1cccc(C(=O)O)c1 | inactive: -2.76% |
| O=[N+]([O-])c1ccc(-c2cc([N+](=O)[O-])c(O)c([N+](=O)[O-])c2)cc1 | inactive: 22.3% |
| COc1cc(C(=O)NCC2(N3CCOCC3)CCCCC2)ccc1OCC(C)C | inactive: 0.2% |
| Cc1ccc(OP(=O)(Nc2ccc([N+](=O)[O-])cn2)Oc2ccc(C)cc2)cc1 | inactive: 0.4% |
| Cc1ccc2nc3c(c(C)c2c1)CC(C(Cl)Cl)S3 (stereo not given) | inactive: 8.67% |
| ClCCSc1nnc(-c2cccnc2)o1 | inactive: -0.23% |
| COC(=O)C1(C)COP(=O)(N2CCCCCC2)OC1 (stereo not given) | inactive: -0.23% |
| CC(C)c1ccc(OP(=O)(Nc2ccccn2)Oc2ccccc2F)cc1 (stereo not given) | inactive: 4.39% |
| CC(C)NC(=O)NP(=O)(Oc1ccccc1)Oc1ccccc1 | inactive: -6.54% |
| CCN(CC)C(=S)SC(NC=O)C(Cl)(Cl)Cl (stereo not given) | inactive: -23.2% |
| O=C(OC1CN2CCC1CC2)c1cccc2[nH]cnc12 (stereo not given) | inactive: -4.52% |
| O=[N+]([O-])c1cc([N+](=O)[O-])c(-c2ccn[nH]2)s1 | inactive: 4.21% |
| CCOC(=O)Nc1ccc([As](=O)(O)O)c(O)c1 | inactive: 6.6% |
| CC1CCNP(=O)(N(CCCl)CCCl)O1 (stereo not given) | inactive: -4.14% |
| CCCCOc1ccc(C(=O)NCC2(N3CCCCC3)CCCCC2)cc1OC | inactive: -2.67% |

| SMILES | inhibition |
| --- | --- |
| Cc1cc(SC(NC(=O)c2ccccc2)C(Cl)(Cl)Cl)nc(C(C)C)n1 (stereo not given) | inactive: -3.29% |
| CCOC(=O)Nc1cccc([As](=O)(O)O)c1 | inactive: -1.76% |
| O=P(Nc1ccccn1)(c1cccc2ccccc12)c1cccc2ccccc12 | inactive: -1.44% |
| Cc1cc(SC(NC=O)C(Cl)(Cl)Cl)ncn1 (stereo not given) | inactive: 3.73% |
| O=[N+]([O-])c1ccc(Nc2ccc(Oc3ccc([N+](=O)[O-])cc3[N+](=O)[O-])cc2)c([N+](=O)[O-])c1 | inactive: -0.6% |
| COP1(=S)c2c(C)nn(CCC#N)c2N=C(c2ccc(F)cc2)N1C (stereo not given) | inactive: -0.41% |
| O=C(COc1ccccc1)OC1CN2CCC1CC2 (stereo not given) | inactive: -2.49% |
| O=C(Nc1ccncc1[N+](=O)[O-])c1ccc([N+](=O)[O-])cc1[N+](=O)[O-] | inactive: 6.24% |
| O=C(OC1CN2CCC1CC2)c1cccc([N+](=O)[O-])c1 (stereo not given) | inactive: -7.09% |
| CCOC(=O)c1ccc(NC(=O)C(C)(CCl)SC)cc1 (stereo not given) | inactive: -0.53% |
| CCC(C)N(CC(C)C)C(=S)SC(NC(C)=O)C(Cl)(Cl)Cl (stereo not given) | inactive: -25.6% |
| O=P1(Nc2ccccn2)COc2ccccc2OC1 | inactive: -0.89% |
| CCC1=CC2Cc3nc4ccc(Cl)cc4c(N)c3C(C1)C2 (stereo not given) | inactive: 13.3% |
| CCOP(=O)(NC(=NC(C)c1ccccc1)NC(C)c1ccccc1)OCC (stereo not given) | inactive: -4.51% |
| CCOP(=O)(Nc1ccc(C)cn1)OCC | inactive: 1.61% |
| CN(CCCl)Cc1cc(Cl)c(NC2=NCCN2)c(Cl)c1 | inactive: -4.22% |
| Clc1n[nH]nc1-c1nn[nH][15n]1 | inactive: -1.18% |
| CC(C)(C)C(=O)NC(Sc1ncccn1)C(Cl)(Cl)Cl (stereo not given) | inactive: -4.07% |
| COc1ccccc1CNC(=O)COC(=O)C(O)(c1ccccc1)c1ccccc1 | inactive: 1.96% |
| CC(C)/C=N\N=C(\N)N[N+](=O)[O-] | inactive: -0.17% |
| CN(C(=O)Cc1ccc(Cl)c(Cl)c1)[C@@H]1CCCC[C@H]1N1CCCC1 | inactive: -3.57% |
| CC1(CBr)Cn2c(nc3ccccc3c2=O)S1 (stereo not given) | inactive: -0.93% |
| Cc1nn(-c2ccccc2)c2c1P(=O)(N1CCOCC1)N(C)C(c1ccccc1)=N2 (stereo not given) | inactive: 12.1% |
| CC1CCC(C(C)C)C(OP(=O)(Nc2ccccn2)c2ccccc2)C1 (stereo not given) | inactive: 4.01% |
| Cc1ccc(C(=O)OC2CN3CCC2CC3)cc1 (stereo not given) | inactive: -5.46% |

| SMILES | inhibition |
| --- | --- |
| CN(C)C1(CNC(=O)c2ccc(S(C)(=O)=O)cc2)CCCCC1 | inactive: -2.98% |
| O=C(/C=C/c1ccccc1)OC1CN2CCC1CC2 (stereo not given) | inactive: -7.39% |
| CCCC1OP(=O)(Nc2ccccc2)OCC1CC (stereo not given) | inactive: -3.65% |
| O=P1(Nc2ncccn2)COc2ccccc2OC1 | inactive: -2.93% |
| Nc1cccc([As](=O)(O)c2ccccc2)c1 | inactive: -4.7% |
| Cc1ccc(OCC(=O)OC2CN3CCC2CC3)cc1 (stereo not given) | inactive: 2.33% |
| O=[As](O)(c1cccs1)c1cccs1 | inactive: 3.09% |
| O=P1(Nc2ccc(Br)cn2)COc2ccccc2OC1 | inactive: -1.75% |
| NS(=O)(=O)c1cccc(NC(=O)COC(=O)C(O)(c2ccccc2)c2ccccc2)c1 | inactive: 1.46% |
| CCOP1(=S)c2c(C)nn(CCC#N)c2N=C(c2ccccc2F)N1C (stereo not given) | inactive: -8.18% |
| O=P(Nc1nccs1)(Oc1ccccc1)Oc1ccccc1 | inactive: -0.01% |
| O=P(Nc1nccs1)(c1ccccc1)c1nc2ccccc2s1 (stereo not given) | inactive: 1.45% |
| CS(=O)(=O)c1cc([N+](=O)[O-])c2no[n+]([O-])c2c1 | inactive: 3.01% |
| Nc1ccccc1[As](=O)(O)c1ccccc1 | inactive: 12.6% |
| O=C(O)COc1ccc([As](=O)(O)O)cc1[N+](=O)[O-] | inactive: -4.15% |
| NC(=O)Nc1ccc([As](=O)(O)O)cc1 | inactive: 0.92% |
| N#CCCN(C(=O)COC(=O)C(O)(c1ccccc1)c1ccccc1)c1ccc(F)cc1 | inactive: -3.34% |
| CCOP1(=S)c2c(C)nn(CCC#N)c2N=C(c2ccc(F)cc2)N1C (stereo not given) | inactive: -9.94% |
| CN(C(=O)Cc1ccccc1)[C@@H]1CC[C@]2(CCCO2)C[C@H]1N1CCCC1 | inactive: -7.79% |
| O=[N+]([O-])c1ccc2c(c1)nnn2O | inactive: -9.27% |
| CN(C)C(=O)c1cc([N+](=O)[O-])cc2c1-c1c(cc([N+](=O)[O-])cc1[N+](=O)[O-])C2=O | active: 47.6% |
| CN(C(=O)Cc1ccc(Cl)c(Cl)c1)[C@H]1CC[C@@]2(CCCO2)C[C@@H]1N1CCCC1 | inactive: -4.68% |
| O=C(OC1CN2CCC1CC2)c1ccc(Cl)cc1 (stereo not given) | inactive: -9.4% |
| O=[As](O)(O)c1cccnc1 | inactive: -2.85% |
| COc1cc(C(=O)NCC2(N3CCOCC3)CCCCC2)cc(Cl)c1OC(C)C | inactive: -8.81% |

| SMILES | inhibition |
| --- | --- |
| CS(=O)(=O)c1ccc(Cl)c(NC(=O)COC(=O)C(O)(c2ccccc2)c2ccccc2)c1 | inactive: 0% |
| Cc1cccc(OCC(=O)OC2CN3CCC2CC3)c1 (stereo not given) | inactive: 5.33% |
| O=[As](O)(c1cccc(O)c1)c1cccc(O)c1 | inactive: -1.97% |
| Cc1ccc(NCCc2c([N+](=O)[O-])cc([N+](=O)[O-])cc2[N+](=O)[O-])cc1 | inactive: 8.96% |
| Nc1cccc2c([As](=O)(O)O)cccc12 | inactive: 14.9% |
| CCCOP(=S)(Nc1nc(N)cc(=O)[nH]1)OCCC | inactive: 3.2% |
| COc1cc(C2NCCC3(OCCO3)C2(C)C)cc(OC)c1OC (stereo not given) | inactive: 3.3% |
| CCOP(=O)(Nc1cccc2ccccc12)OCC | inactive: -6.7% |
| O=P1(Nc2nc3ccc(Cl)cc3s2)COc2ccccc2O1 (stereo not given) | inactive: -2.53% |
| CCOc1ccc(C2=NCC(CBr)S2)cc1 (stereo not given) | inactive: -13.5% |
| CC(C)(C)C(=O)NC(Sc1ccccc1)C(Cl)(Cl)Cl (stereo not given) | inactive: -0.93% |
| CCc1cc(O)c([N+](=O)[O-])c(C)c1[N+](=O)[O-] | inactive: 2.11% |
| Cc1ccccc1CN(C)C(=O)COC(=O)C(O)(c1ccccc1)c1ccccc1 | inactive: -3.83% |
| C[C@H]1OP(=O)(Oc2ccccc2)C[C@@H]2O[C@@H]21 (stereo not given in full) | inactive: -0.83% |
| C[C@@H]1C=CCP(=O)(Oc2ccccc2)O1 (stereo not given in full) | inactive: 23% |
| CC(=O)c1ccc(N2CC2c2ccncc2)cc1 (stereo not given) | inactive: -2.6% |
| N#C/C(=C\c1ccc(N(CCBr)CCBr)cc1)C(N)=O | inactive: 5.42% |
| COC(=O)C1(C)COP(=O)(NCc2ccccc2)OC1 (stereo not given) | inactive: -7.94% |
| CC(=O)Nc1ccc([As](=O)(O)O)c(O)c1 | inactive: -2.03% |
| CC(=O)Nc1ccc(Oc2c([N+](=O)[O-])cc([N+](=O)[O-])cc2[N+](=O)[O-])cc1 | inactive: -4.01% |
| c1ccc(-c2nn[nH]n2)c(-c2nn[nH]n2)c1 | inactive: -4.2% |
| Cc1ccc(NP(=O)(Oc2cccc(C)c2)Oc2cccc(C)c2)nc1 | inactive: 1.71% |
| CCNC(=S)/N=C(\N)N[N+](=O)[O-] | inactive: -10.8% |
| O=C(NC1CCS(=O)(=O)C1)NP(=S)(Oc1ccccc1)Oc1ccccc1 (stereo not given) | inactive: -8.01% |
| O=P1(N(CCCl)CCCl)OCCC2CCCCN21 (stereo not given) | inactive: 0.64% |
